Measurements as given in patent US7223550B2, “Biosensor for defecting chemical agents” (dated 2007).

The chains behind the UniProt entries cited, without tags or fusion partners. Where a name states a change or a piece, a line headed by the entry shows the natural chain unless it says otherwise.
UniProt P23270: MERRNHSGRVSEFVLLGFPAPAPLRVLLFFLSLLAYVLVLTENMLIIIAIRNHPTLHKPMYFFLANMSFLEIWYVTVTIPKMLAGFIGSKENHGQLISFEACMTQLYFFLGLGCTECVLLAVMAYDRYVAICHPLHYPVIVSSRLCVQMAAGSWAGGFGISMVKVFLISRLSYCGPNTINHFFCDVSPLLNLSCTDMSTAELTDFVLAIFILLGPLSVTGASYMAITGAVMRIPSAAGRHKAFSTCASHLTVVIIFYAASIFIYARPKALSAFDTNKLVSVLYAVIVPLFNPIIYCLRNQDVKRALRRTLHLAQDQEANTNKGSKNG

What was measured:
[1] = molecular target: T1, rat RI7 olfactory receptor (Rattus norvegicus, UniProt P23270); assay: GFP expression in WIF-1α-RI7 cells exposed to olfactants, laser confocal microscopy; settings: for GFP expression in WIF-1α-RI7 cells in the presence of the olfactant: 100 nmoles olfactant, 3 hrs. post-exposure, laser confocal microscopy, FIGS. 6A-6D; for Detection of the olfactant by the WIF-1α-RI7 cells: conclusion drawn from GFP expression at 100 nmoles, 3 hrs.
[2] = molecular target: T1, rat RI7 olfactory receptor; assay: GFP fluorescence response of yeast biosensor WIF-1α-RI7 to olfactants (plate reader); settings: single concentration 25 nM for 3 hours; excitation 485 nm, emission 535 nm; FIG. 4B

SMILES | GFP expression in WIF-1α-RI7 cells in the presence of the olfactant [1] | Detection of the olfactant by the WIF-1α-RI7 cells [1] | Specificity of WIF-1α-RI7: ratio of WIF-1α-RI7 GFP fluorescence values over WIF-1α (control) GFP fluorescence values [2]
CCCCCC=O | essentially equal to background | no detection | 
CCCCCCC=O | increased GFP expression in cells exposed to heptaldehyde with respect to the control and hexaldehyde-exposed cells | some detection | 
CCCCCCCC=O | increase in GFP expression in cells exposed to octaldehyde with respect to heptaldehyde-exposed cells | specifically detect | greater specificity
